Legend:
[1] = target: Tyrosine-protein kinase Lck (Homo sapiens, UniProt P06239); assay: Inhibitory activity against Lck tyrosine kinase
[2] = target: Fibroblast growth factor receptor 1 (Homo sapiens, UniProt P11362); assay: Inhibitory activity against Fibroblast growth factor receptor 1

By UniProt entry, the sequences of proteins in these tests, tags left out. Where a name states a change or a piece, a line headed by the entry shows the natural chain unless it says otherwise.
UniProt P06239: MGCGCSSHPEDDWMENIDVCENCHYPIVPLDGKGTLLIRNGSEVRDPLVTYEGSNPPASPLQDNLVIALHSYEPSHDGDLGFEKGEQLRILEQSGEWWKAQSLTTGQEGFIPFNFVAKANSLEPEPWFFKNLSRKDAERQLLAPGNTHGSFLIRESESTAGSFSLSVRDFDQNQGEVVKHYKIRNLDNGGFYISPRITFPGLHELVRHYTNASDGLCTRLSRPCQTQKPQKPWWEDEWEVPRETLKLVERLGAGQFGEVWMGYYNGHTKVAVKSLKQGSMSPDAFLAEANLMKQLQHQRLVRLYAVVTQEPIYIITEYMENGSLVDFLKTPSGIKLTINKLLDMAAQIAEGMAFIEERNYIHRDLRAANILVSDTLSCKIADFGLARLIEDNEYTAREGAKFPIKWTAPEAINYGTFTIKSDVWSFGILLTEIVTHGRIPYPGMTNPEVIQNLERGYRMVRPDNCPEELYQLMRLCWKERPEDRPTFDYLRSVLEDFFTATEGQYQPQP
UniProt P11362, whole entry: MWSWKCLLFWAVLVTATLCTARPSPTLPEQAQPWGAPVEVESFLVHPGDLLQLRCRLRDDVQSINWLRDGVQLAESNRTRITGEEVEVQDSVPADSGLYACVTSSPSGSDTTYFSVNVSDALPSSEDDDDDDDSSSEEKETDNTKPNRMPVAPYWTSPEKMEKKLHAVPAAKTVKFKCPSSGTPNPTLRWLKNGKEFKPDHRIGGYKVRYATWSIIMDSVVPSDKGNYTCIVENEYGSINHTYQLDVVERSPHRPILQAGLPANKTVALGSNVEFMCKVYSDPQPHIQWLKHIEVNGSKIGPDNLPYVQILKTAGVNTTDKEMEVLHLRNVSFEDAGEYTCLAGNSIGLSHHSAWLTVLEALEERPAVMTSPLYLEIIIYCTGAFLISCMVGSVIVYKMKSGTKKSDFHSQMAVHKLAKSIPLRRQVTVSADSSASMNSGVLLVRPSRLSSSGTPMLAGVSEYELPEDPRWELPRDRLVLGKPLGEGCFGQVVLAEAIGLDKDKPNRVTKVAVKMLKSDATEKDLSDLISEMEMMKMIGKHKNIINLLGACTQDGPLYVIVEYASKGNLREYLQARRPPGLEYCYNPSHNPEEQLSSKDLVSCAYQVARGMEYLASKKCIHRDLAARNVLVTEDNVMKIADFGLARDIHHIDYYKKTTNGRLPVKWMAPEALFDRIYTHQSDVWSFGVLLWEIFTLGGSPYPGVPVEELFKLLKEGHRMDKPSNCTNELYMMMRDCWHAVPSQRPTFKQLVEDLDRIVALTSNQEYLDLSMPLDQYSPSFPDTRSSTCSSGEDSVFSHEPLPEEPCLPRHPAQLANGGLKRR

| SMILES | IC50 [1] | IC50 [2] |
| --- | --- | --- |
| CNS(=O)(=O)c1ccc2c(c1)/C(=C/c1[nH]c3c(c1CCCN1CCOCC1)CCCC3)C(=O)N2 | 700 nM | – |
| CCS(=O)(=O)c1ccc2c(c1)/C(=C/c1[nH]c3c(c1CCCN1CCC(O)CC1)CCCC3)C(=O)N2 | – | 500 nM |

From ChEMBL document CHEMBL1146690, “Design and synthesis of aminopropyl tetrahydroindole-based indolin-2-ones as selective and potent inhibitors of Src and Yes tyrosine kinase” (Bioorg Med Chem Lett, 2004)
